According to patent publication US20030162727A1, “Use of cyp1b1inhibitors for treating cancer” (priority 2000, published 2003):

Molecular target: T1, CYP1B1 (Homo sapiens, UniProt Q16678)
T1 sequence (Q16678 1-543): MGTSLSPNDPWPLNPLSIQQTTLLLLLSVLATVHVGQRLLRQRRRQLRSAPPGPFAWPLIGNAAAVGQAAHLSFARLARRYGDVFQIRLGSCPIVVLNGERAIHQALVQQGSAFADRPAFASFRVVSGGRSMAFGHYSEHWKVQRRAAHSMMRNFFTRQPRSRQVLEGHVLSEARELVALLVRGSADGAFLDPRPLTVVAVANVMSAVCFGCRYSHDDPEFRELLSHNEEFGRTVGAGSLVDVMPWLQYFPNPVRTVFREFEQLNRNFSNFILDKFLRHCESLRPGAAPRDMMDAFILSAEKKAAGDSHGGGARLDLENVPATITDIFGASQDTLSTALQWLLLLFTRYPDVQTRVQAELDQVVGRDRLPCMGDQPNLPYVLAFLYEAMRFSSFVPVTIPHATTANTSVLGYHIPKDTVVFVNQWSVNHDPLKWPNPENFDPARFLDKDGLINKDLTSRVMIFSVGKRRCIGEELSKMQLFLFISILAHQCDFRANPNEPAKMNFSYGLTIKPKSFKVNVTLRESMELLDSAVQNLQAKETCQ
Text: Recent immunohistochemical analysis of P4501B1 protein in a variety of solid tumours identified tumour-specific enzyme expression (Murray et al, 1998). This provides a mechanism of resistance to currently used anticancer agents, as well as, an approach for targeted prodrug therapy. 7-ethoxyresorufin deethylase activity (EROD) was used to define interactions with cytochrome 1B1 (CYP1B1). 7-Ethoxyresorufin is a known substrate for P4501B1. […] For this purpose, inhibition constants (Ki) have been calculated using in vitro kinetics from CYP1B1-mediated EROD activity. EROD activity and assay has been described previously by various authors (Lubet et al., 1985, Arch. Biochem. Biophys. 238: pp 43-48; Gentest Corporation, 6 Henshaw St., Woburn, Mass. 01801 USA, data sheet given with CYP1B1, catalogue number P220). 7-Ethoxyresorufin is enzymatically deethylated to a product called resorufin. The appearance of resorufin was monitored by a fluorescence detector set at 550 nm and 582 nm (excitation and emission wavelengths). […] Incubations contained: phosphate buffer at pH 7.4, 7-ethoxyresorufin, CYP1B1 Supersomes from Gentest Co (catalogue number P220) and nicotine adenine dinucleotide phosphate (NADP) as cofactor.
The metabolism of anti-cancer drugs by CYP1B1 was studied using an inhibition of EROD assay. […] Ki values were determined by the Dixon's replots: see Table 2.

Inhibition Type: non-competitive
Structure (SMILES): O=c1cc(-c2ccccc2)oc2c1ccc1ccccc12 [α-naphthoflavone]
